Like-named read-outs stand apart in the source and are kept apart here.
Columns and labels:
[1] = molecular target: human D3 receptor (Homo sapiens (Human), UniProt P35462); test: Radioligand binding assay, [3H]-spiperone, human D3 receptor
Experimental: (§1) HEK293 EBNA cells were transiently transfected with expression plasmids encoding for the human D2 or D3 or for the human 5-HT2A receptor, respectively. The cells were harvested 48 h post-transfection, washed three times with cold PBS and stored at −80° C. prior to use. The pellet was suspended in cold 50 mM Tris-HCl buffer comprising 10 mM EDTA (pH 7.4) and was homogenized with a Polytron (Kinematica AG, Basel, Switzerland) for 20-30 sec at 12.000 rpm. After centrifugation at 48.000×g for 30 min at 4° C., the pellet was resuspended in cold 10 mM Tris-HCl buffer comprising 0.1 mM EDTA (pH 7.4), homogenized, and centrifuged as above. This pellet was further resuspended in a smaller volume of ice cold 10 mM Tris-HCl buffer comprising 0.1 mM EDTA (pH 7.4) and homogenized with a Polytron for 20-30 sec at 12.000 rpm. The protein content of this homogenate was determined with the Bio-Rad (Bradford) Protein Assay (Biorad Laboratories GmbH, München, Germany) according to the instructions of the manufacturer using gamma globulin as the standard. This homogenate was stored at −80° C. in aliquots and thawed immediately prior to use. […]
(§2) The binding affinity (Ki) of the compounds was determined using radioligand binding. […] The nonspecific binding was determined with equally composed reaction mixtures in the presence of 10 μM unlabelled spiperone. Per well 45 μl of Microscint 40 (Perkin Elmer, Schwerzenbach, Switzerland) was added, plates for sealed, shaken for 20 min and counted for 3 min on a Topcount Microplate Scintillation Counter (Can berra Packard SA, Zürich, Switzerland) with quenching correction.
The CPM value for each duplicate of a concentration of competing compound was averaged (y1), then the % specific binding was calculated according to the equation (((y1−non-specific)/(total binding−non-specific))×100). […] The affinity constant (K) was calculated using the Cheng-Prusoff equation Ki=(IC50/1+([L]/Kd), where [L] is the concentration of radioligand and Kd is the dissociation constant of the radioligand at the receptor as determined by the saturation isotherm.

The chains behind the UniProt entries cited, without tags or fusion partners.
UniProt P35462, whole entry: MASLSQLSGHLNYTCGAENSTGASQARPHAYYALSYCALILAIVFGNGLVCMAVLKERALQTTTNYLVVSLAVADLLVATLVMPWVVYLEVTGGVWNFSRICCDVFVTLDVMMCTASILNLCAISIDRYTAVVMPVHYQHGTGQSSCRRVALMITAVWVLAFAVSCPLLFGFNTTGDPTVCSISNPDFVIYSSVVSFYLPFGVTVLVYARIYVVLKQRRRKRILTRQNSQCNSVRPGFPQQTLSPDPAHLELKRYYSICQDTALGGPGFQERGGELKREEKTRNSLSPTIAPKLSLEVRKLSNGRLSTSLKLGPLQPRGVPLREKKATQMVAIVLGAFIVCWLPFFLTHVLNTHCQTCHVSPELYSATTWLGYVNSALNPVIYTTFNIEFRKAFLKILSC
UniProt P14416, whole entry: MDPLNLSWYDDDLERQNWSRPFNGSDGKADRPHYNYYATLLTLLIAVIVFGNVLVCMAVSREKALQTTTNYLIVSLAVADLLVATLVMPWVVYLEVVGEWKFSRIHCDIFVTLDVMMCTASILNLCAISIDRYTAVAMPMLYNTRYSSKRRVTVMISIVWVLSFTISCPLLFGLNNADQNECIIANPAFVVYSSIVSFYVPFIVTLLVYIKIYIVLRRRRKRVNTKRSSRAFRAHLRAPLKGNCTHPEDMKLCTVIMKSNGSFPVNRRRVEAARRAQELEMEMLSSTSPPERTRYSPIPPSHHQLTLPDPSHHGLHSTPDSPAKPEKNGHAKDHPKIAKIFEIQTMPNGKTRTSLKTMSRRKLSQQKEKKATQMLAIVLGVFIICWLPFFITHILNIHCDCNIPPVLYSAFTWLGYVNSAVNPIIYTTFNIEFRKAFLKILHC
UniProt P28223, whole entry: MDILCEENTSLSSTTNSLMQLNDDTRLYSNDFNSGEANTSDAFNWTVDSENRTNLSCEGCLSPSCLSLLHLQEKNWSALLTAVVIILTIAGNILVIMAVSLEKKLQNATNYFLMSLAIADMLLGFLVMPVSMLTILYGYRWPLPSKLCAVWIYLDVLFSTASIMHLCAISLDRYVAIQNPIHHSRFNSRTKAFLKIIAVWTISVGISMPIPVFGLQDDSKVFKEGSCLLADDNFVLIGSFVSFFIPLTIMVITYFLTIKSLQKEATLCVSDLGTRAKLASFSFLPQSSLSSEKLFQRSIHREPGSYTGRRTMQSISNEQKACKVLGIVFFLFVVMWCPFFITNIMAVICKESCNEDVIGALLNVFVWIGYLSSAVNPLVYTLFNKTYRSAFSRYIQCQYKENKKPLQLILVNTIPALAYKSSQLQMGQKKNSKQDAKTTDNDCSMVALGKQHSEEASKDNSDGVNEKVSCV

[2] = molecular target: human D2 receptor (Homo sapiens (Human), UniProt P14416); test: Radioligand binding assay, [3H]-spiperone, human D2 receptor
Experimental: as §1, with “This pellet was further resuspended in a smaller volume of ice cold 10 mM Tris-HCl buffer comprising 0.1 mM EDTA (pH 7.4) and homogenized with a Polytron for 20-30 sec at 12.000 rpm.” left out, “standard.” for “standard. This homogenate was stored at −80° C. in aliquots and thawed immediately prior to use.”
as §2, with “correction. […]” for “correction.”

[3] = molecular target: human 5-HT2A receptor (Homo sapiens (Human), UniProt P28223); test: Radioligand binding assay, [3H]-ketanserin, human 5-HT2A receptor
Experimental: as §1, with “This pellet was further resuspended in a smaller volume of ice cold 10 mM Tris-HCl buffer comprising 0.1 mM EDTA (pH 7.4) and homogenized with a Polytron for 20-30 sec at 12.000 rpm.” left out, “standard.” for “standard. This homogenate was stored at −80° C. in aliquots and thawed immediately prior to use.”
as §2, with “correction. […]” for “correction.”

[4] = membranes of HEK293 EBNA cells expressing human D3, 0.5 nM [3H]-spiperone

Compound	Ki [1, 4] [µM]	Ki [2] [µM]	Ki [3] [µM]	Ki [1] [µM]
O=C(C[C@@H]1COCCO1)N[C@H]1CC[C@H](CCN2CCN(c3nccc4c3CCO4)CC2)CC1 [Example 61, trans-N-(4-{2-[4-(2,3-Dihydro-furo[3,2-c]pyridin-4-yl)-piperazin-1-yl]-ethyl}-cyclohexyl)-2-(R)-[1,4]dioxan-2-yl-acetamide]	0.0187	–	–	–
O=C(C[C@H]1COCCO1)N[C@H]1CC[C@H](CCN2CCN(c3nccc4c3CCO4)CC2)CC1 [Example 67, trans-N-(4-{2-[4-(2,3-Dihydro-furo[3,2-c]pyridin-4-yl)-piperazin-1-yl]-ethyl}-cyclohexyl)-2-(S)-[1,4]dioxan-2-yl-acetamide]	0.0243	–	–	–
Cc1ccc(C(=O)N[C@H]2CC[C@H](CCN3CCN(c4nccc5c4CCO5)CC3)CC2)cn1 [Example 116, trans-N-(4-{2-[4-(2,3-Dihydro-furo[3,2-c]pyridin-4-yl)-piperazin-1-yl]-ethyl}-cyclohexyl)-6-methyl-nicotinamide]	–	0.313	0.0155	0.0521
